E-sel inducer: E-selectin induction on HUVECs. activation, % at 7.58 µM. 0.37% of 260,000 active. HUVEC E-selectin immunofluorescence imaging; normalized: neutral wells 0, TNF-alpha wells 100. P16581;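 active means mean E-selectin-positive cell signal at least 10% of the positive control, reached in at least 60% of replicates, without over 20% cell loss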
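System: HUVEC / Compound: single concentration / Signal: immunofluorescence imaging / Read-out: percent E-selectin-positive cells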
esBAF inh: blocks esBAF chromatin remodeling in mouse ES cells | Bmi1-luciferase knock-in reporter, 24 h; 100% = twice the neutral-well signal | reporter increase, % at 12.5 µM | 2% of 350,000 active | AID 602393; in the data active means activation above about 40%;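 further: 0% = median of the plate's neutral control wells and 100% = double that signal; a rise in the Bmi1 reporter signal indicates esBAF inhibition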
Statin myotox sup: suppressors of simvastatin-induced myotoxicity in C2C12 myotubes. rescue of ATP level, % at 7.49 µM. 0.78% of 330,000 active. ATP luminescence, 48 h; scaled: DMSO 0, geranylgeraniol control 100. AID 602340;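 active means mean ATP rescue above about 67%, or every replicate alone reaching that limit, limit read from the data, passing the limit was not always enough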;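 further: myotubes were challenged with 10 µM simvastatin during compound exposure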
PglD inh: blocks C. jejuni PglD acetyltransferase activity | inhibition, % at 12.5 µM | 0.098% of 360,000 active | purified PglD enzyme, DTNB colorimetric CoA detection | AID 602405; in the data active means inhibition above about 16%, passing the limit was not always enough
PGC1a acetyl inh: modulators of PGC1a acetylation. AID 651687. inhibition, % at 15.6 µM. U2OS PGC1a acetylation, AlphaScreen anti-acetyl-lysine; with virally co-expressed GCN5 acetyltransferase. 0.17% of 350,000 active;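 active means every replicate shows inhibition of at least 40%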;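 further: 0% = neutral control wells and 100% = positive control wells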
Yeast UUG start: modulators of yeast start codon fidelity, primary screen, whole organism, S. cerevisiae, single point, plate reader | AID 602363, 2012 | actives 0.13% (n = 350,000) | activity score, % at 18.7 µM | S. cerevisiae UUG-firefly luciferase reporter, luminescence/redox ratio;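 active means replicate mean at a twofold rise or more, about +100% in these data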;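 further: firefly luciferase made from a UUG start codon reports start codon fidelity; reporter light over untreated wells divided by growth signal over untreated wells; some hits fall short of that in this replicate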
Numbers without * were called inactive; . = no result. Compounds with a hit are over-represented: about 2.8% of the library has one in this group of screens.

1) CCC(=O)N[C@@H]1C=C[C@H](CC(=O)NCCN2CCCCC2)O[C@@H]1CO
2) O=c1[nH]c(SCCOc2ccccc2F)nc2ccccc12
3) COc1ccccc1OCCSc1nc2ccccc2c(=O)[nH]1
4) O=C(O)Cc1c(O)ccc2ccccc12
5) O=C1C[C@@H]2c3c(cccc3CN1Cc1ccc(Br)cc1)C[C@@H](O)[C@H]2O
6) C[C@@H]1CCCCO[C@H](CN(C)Cc2ccccc2)[C@@H](C)CN([C@@H](C)CO)C(=O)c2cc(NC(=O)Nc3ccc4c(c3)OCO4)ccc2O1
7) Cc1cccc(N(C(=O)Nc2ccccc2)C2=NCC(C)S2)c1 (configuration not stated)
8) Cc1ccc(NC(=O)N(C2=NCC(C)S2)c2ccccc2)cc1 (configuration not stated)

Screen / compound no. | 1 | 2 | 3 | 4 | 5 | 6 | 7 | 8
E-sel inducer | 0 | . | . | . | 0 | 0 | . | .
Statin myotox sup | -2 | . | -5 | 121* | 100* | -174 | 13 | 2
PGC1a acetyl inh | 1 | 2 | -2 | 45 | 10 | -1 | 8 | .
Yeast UUG start | -14 | . | -39 | -16 | -8 | -7 | -9 | -14
esBAF inh | -4 | . | 64* | 4 | 11 | 5 | 17 | 43*
PglD inh | 2 | . | -2 | -3 | 2 | -4 | -4 | -3

9) COc1ccc(S(=O)(=O)Nc2ccc3c(c2)C(=O)N([C@@H](C)CO)C[C@H](C)[C@@H](CN(C)S(=O)(=O)c2cccs2)OCCCC[C@@H](C)O3)cc1
10) COc1ccc(S(=O)(=O)Nc2ccc3c(c2)C(=O)N([C@H](C)CO)C[C@H](C)[C@@H](CN(C)S(=O)(=O)c2cccs2)OCCCC[C@H](C)O3)cc1
11) COc1ccc(S(=O)(=O)Nc2ccc3c(c2)C(=O)N([C@H](C)CO)C[C@H](C)[C@H](CN(C)S(=O)(=O)c2cccs2)OCCCC[C@H](C)O3)cc1
12) COc1ccc(S(=O)(=O)Nc2ccc3c(c2)C(=O)N([C@H](C)CO)C[C@@H](C)[C@H](CN(C)S(=O)(=O)c2cccs2)OCCCC[C@H](C)O3)cc1
13) CN(C)C(=O)C[C@@H]1CC[C@@H](NC(=O)C2CCOCC2)[C@H](CO)O1
14) C[C@@H]1CN([C@@H](C)CO)C(=O)c2cc(C3=CCCCC3)cnc2O[C@H]1CN(C)Cc1ccncc1
15) Brc1ccc2nc(-c3cccs3)c(NCC3CCCO3)n2c1 (configuration not stated)
16) Clc1ccc(OCCCN2CCCCC2)c(Br)c1

Screen / compound no. | 9 | 10 | 11 | 12 | 13 | 14 | 15 | 16
E-sel inducer | . | . | . | . | 0 | 0 | . | 1
Statin myotox sup | 79* | -77 | 97* | 102* | -5 | 7 | -3 | .
PGC1a acetyl inh | -8 | 26 | -3 | -12 | -9 | 6 | . | .
Yeast UUG start | -2 | 6 | -3 | 18 | . | -10 | . | 1
esBAF inh | -1 | -2 | 3 | 2 | 2 | -1 | 60* | 23*
PglD inh | -1 | 0 | -1 | 2 | -5 | -1 | . | 1

17) CCC(=O)N1C[C@@H](C)[C@H](OC)CN(C)C(=O)c2cc(NC(=O)c3ccc(OC)cc3)ccc2OC[C@H]1C
18) Oc1ccc(C=Nc2ccc(N3CCOCC3)cc2)c(O)c1
19) Oc1c(Cl)cc(Cl)cc1C=Nc1ccc(N2CCOCC2)cc1
20) CC(=O)c1ccc(N(C(=O)CNC(=O)c2ccco2)C(C(=O)NC2CCCC2)c2ccc(C)o2)cc1 (configuration not stated)
21) COc1ccc(C(C(=O)NC2CCCC2)N(Cc2ccccc2)C(=O)CNC(=O)c2ccco2)cc1 (configuration not stated)
22) COc1ccc(N(C(=O)CNC(=O)c2ccco2)C(C(=O)NC2CCCC2)c2ccc(C)o2)cc1 (configuration not stated)
23) CCOC(=O)CN(C(=O)CNC(=O)c1ccco1)C(C(=O)NC1CCCCC1)c1cccs1 (configuration not stated)
24) O=C(NCC(=O)N(Cc1ccccc1)C(C(=O)NC1CCCCC1)c1ccco1)c1ccco1 (configuration not stated)

Screen / compound no. | 17 | 18 | 19 | 20 | 21 | 22 | 23 | 24
E-sel inducer | 0 | . | 0 | 33* | . | . | . | .
Statin myotox sup | 9 | . | -5 | 9 | 5 | 7 | 124* | 110*
PGC1a acetyl inh | 3 | 64* | 4 | . | -12 | . | -7 | 9
Yeast UUG start | . | -19 | -8 | 0 | 14 | -10 | 1 | -4
esBAF inh | -3 | . | -3 | -2 | -7 | -1 | 1 | 6
PglD inh | 5 | -26 | 2 | -2 | 6 | -3 | 1 | -5

25) COc1ccccc1S(=O)(=O)N[C@@H]1CC[C@@H](CCn2cc(C3CCCC3)nn2)O[C@@H]1CO
26) Cc1cc2n(n1)SC(Nc1cccc3ccccc13)N2 (configuration not stated)
27) CCc1ccccc1NC1Nc2cc(C)nn2S1 (configuration not stated)
28) CCOC(=O)Cc1cnc(NC(=O)c2ccccc2)s1
29) CCOC(=O)Cc1cnc(NC(=O)CSc2nc(N)cc(=O)[nH]2)s1
30) CCOC(=O)c1csc(NC(=O)c2cc3ccccc3o2)n1
31) CCOC(=O)c1csc(NC(=O)c2ccccc2)n1
32) O=C(C[C@@H]1CC[C@H](NC(=O)C2CC2)[C@H](CO)O1)NCC1CC1

Screen / compound no. | 25 | 26 | 27 | 28 | 29 | 30 | 31 | 32
E-sel inducer | 0 | . | 0 | . | . | 0 | 0 | 0
Statin myotox sup | . | 0 | . | -4 | -2 | -13 | 11 | 0
PGC1a acetyl inh | -9 | 9 | -3 | -12 | -4 | 7 | 12 | 4
Yeast UUG start | . | -36 | . | -18 | . | -27 | 2 | 0
esBAF inh | . | 50* | . | 51* | 5 | 64* | 50* | 3
PglD inh | . | -1 | . | -3 | . | 5 | -2 | -1

PGC1a acetyl inh: what is marked active above
No. | Structure | PGC1a acetyl inh | Yeast UUG start | esBAF inh | PglD inh
18 | Oc1ccc(C=Nc2ccc(N3CCOCC3)cc2)c(O)c1 | 64* | -19 | . | -26

Later entries:
33) CC(=O)c1sc(Nc2ccc3c(c2)OCO3)nc1C
34) CC(=O)c1sc(N/N=C/c2cccc(O)c2)nc1C
35) CC(=O)c1sc(N/N=C/c2cccc([N+](=O)[O-])c2)nc1C
36) CO[C@H]1CC[C@H]2CCN(C)C(=O)C[C@@H](c3ccccc3)CN(C)C(=O)c3cc(C#N)ccc3OC[C@@H]1O2
37) COc1ccc(C2C(C(C)=O)=C(O)C(=O)N2c2ccc(Br)cn2)cc1 (configuration not stated)
38) COc1ccc(C2C(C(=O)c3cccs3)=C(O)C(=O)N2c2cccc(C)n2)cc1 (configuration not stated)
39) Cc1ccc(-c2ccccc2[C@@H]2C[C@H]3CN(C)C(=O)[C@]34CCCN24)o1
40) CN1CCN(C(=O)C[C@@H]2CC[C@H]3[C@@H](COC[C@@H](O)CN3C(=O)Nc3ccc4c(c3)OCO4)O2)CC1
41) O=C(O)c1ccccc1C(=O)N1CCN(c2cccc(Cl)c2)CC1
42) COc1cc(Cl)ccc1NC(=O)COc1ccccc1C(=O)N1CCN(c2ccc(O)cc2)CC1
43) O=C(O)/C=C\C(=O)Nc1ccccc1C(=O)N1CCN(c2ccc(Cl)cc2)CC1

Screen / compound no. | 33 | 34 | 35 | 36 | 37 | 38 | 39 | 40 | 41 | 42 | 43
E-sel inducer | -2 | 0 | 0 | 0 | . | 0 | . | 1 | . | . | .
Statin myotox sup | -4 | 45 | 4 | -13 | 136* | . | 103* | 0 | 84* | 122* | 88*
PGC1a acetyl inh | 12 | -7 | . | . | -17 | . | 0 | -7 | -5 | -5 | 5
Yeast UUG start | -8 | -21 | -23 | . | -27 | . | -26 | . | -12 | 10 | -23
esBAF inh | 47* | 63* | 60* | -1 | 25 | . | -7 | 24 | 9 | 4 | -7
PglD inh | -1 | -5 | -1 | . | 1 | . | -5 | 0 | -3 | -8 | 9

Record cards, as listed above. Order of values: E-sel inducer | Statin myotox sup | PGC1a acetyl inh | Yeast UUG start | esBAF inh | PglD inh
Oc1ccc(C=Nc2ccc(N3CCOCC3)cc2)c(O)c1 is entered as . | . | 64* | -19 | . | -26
COc1ccc(C(C(=O)NC2CCCC2)N(Cc2ccccc2)C(=O)CNC(=O)c2ccco2)cc1 (configuration not stated) is entered as . | 5 | -12 | 14 | -7 | 6

Screens from PubChem BioAssay.
